Columns and labels:
[1] = test system: human placental microsomes
[2] = human, in vivo

amount of metabolite formed as percent of the total metabolites [1]: 92%
excretion in urine [2]: excreted in small amounts in urine
Substance: ethylene-hydroxylated glyburide [M5]
